Assay results published in the NIST ThermoML archive (doi:10.1021/je800751m).

Assay: excess molar enthalpy (molar enthalpy of mixing); xn = mol fraction of the nth substance listed
Settings: 298.15 K, 101 kPa, Liquid, Flow calorimetry

CCCCOCCCC [dibutyl ether] + C1CCCCC1
Settings | excess molar enthalpy [kcal/mol]
x1 = 0.0499 | 0.018
x1 = 0.0997 | 0.0321
x1 = 0.1502 | 0.0431
x1 = 0.2002 | 0.0513
x1 = 0.2497 | 0.057
x1 = 0.2999 | 0.061
x1 = 0.35 | 0.0633
x1 = 0.3996 | 0.0642
x1 = 0.4497 | 0.0637
x1 = 0.499 | 0.062
x1 = 0.5495 | 0.0593
x1 = 0.6 | 0.0556
x1 = 0.6491 | 0.0511
x1 = 0.6992 | 0.0457
x1 = 0.7501 | 0.0392
x1 = 0.799 | 0.0327
x1 = 0.85 | 0.0249
x1 = 0.9001 | 0.0166
x1 = 0.9507 | 0.00784

CCCCOCCCC [dibutyl ether] + CCCCO
Settings | excess molar enthalpy [kcal/mol]
x1 = 0.0501 | 0.0285
x1 = 0.1002 | 0.0564
x1 = 0.1497 | 0.0823
x1 = 0.2003 | 0.107
x1 = 0.2503 | 0.129
x1 = 0.3004 | 0.1493
x1 = 0.3498 | 0.1669
x1 = 0.4006 | 0.1821
x1 = 0.4507 | 0.1946
x1 = 0.4997 | 0.2039
x1 = 0.5506 | 0.2103
x1 = 0.5998 | 0.2133
x1 = 0.6505 | 0.2129
x1 = 0.7 | 0.2086
x1 = 0.7509 | 0.1991
x1 = 0.8 | 0.1847
x1 = 0.8501 | 0.162
x1 = 0.8994 | 0.13
x1 = 0.9493 | 0.0789
